Target: T1, Opioid receptors; mu & kappa (Homo sapiens) (UniProt P41145+P35372)
Experiment: Ratio of Ki at mu-opioid receptor to Ki at kappa oioid receptor
Conditions: Cavia porcellus

Chains of the proteins cited; added tags and fusions are not shown. Lines headed by an entry give the natural chain unless they say otherwise; changes in a name come on top.
UniProt P41145: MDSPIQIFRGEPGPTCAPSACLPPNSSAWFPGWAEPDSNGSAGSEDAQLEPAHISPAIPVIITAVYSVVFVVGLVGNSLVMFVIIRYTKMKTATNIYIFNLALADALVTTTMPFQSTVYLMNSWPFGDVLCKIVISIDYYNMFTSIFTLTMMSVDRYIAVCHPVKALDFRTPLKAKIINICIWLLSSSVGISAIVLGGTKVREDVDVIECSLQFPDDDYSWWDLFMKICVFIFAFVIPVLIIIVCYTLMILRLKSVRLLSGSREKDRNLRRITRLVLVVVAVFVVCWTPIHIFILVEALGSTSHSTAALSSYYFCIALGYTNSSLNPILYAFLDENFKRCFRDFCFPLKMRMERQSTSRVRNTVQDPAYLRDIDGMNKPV
UniProt P35372, whole entry, looked up: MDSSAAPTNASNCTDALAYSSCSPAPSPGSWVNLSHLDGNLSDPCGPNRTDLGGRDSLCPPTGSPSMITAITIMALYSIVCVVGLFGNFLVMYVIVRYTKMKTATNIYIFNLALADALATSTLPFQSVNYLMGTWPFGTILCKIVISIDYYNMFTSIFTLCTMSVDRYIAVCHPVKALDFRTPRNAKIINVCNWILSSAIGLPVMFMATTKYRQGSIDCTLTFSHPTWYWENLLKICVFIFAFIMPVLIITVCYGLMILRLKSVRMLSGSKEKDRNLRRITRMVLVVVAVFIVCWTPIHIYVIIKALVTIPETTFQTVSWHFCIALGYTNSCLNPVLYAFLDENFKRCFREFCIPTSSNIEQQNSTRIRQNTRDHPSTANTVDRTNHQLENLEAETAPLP

| Compound | Ratio |
| --- | --- |
| CN(C(=O)Cc1ccc(Cl)c(Cl)c1)C1CCCCC1N1CCCC1 (stereo not given) | 88 |
| CN(CCc1ccccc1)[C@@H]1CCCC[C@H]1N(C)C(=O)Cc1cccc2sccc12 | 0.87 |
| CN(C(=O)Cc1ccccc1)[C@H]1CC[C@@]2(CCCO2)C[C@@H]1N1CCCC1 | 7.1 |
| CN(CC1CC1)[C@@H]1CCCC[C@H]1N(C)C(=O)Cc1cccc2sccc12 | 0.95 |
| CN(C(=O)Cc1cccc2sccc12)[C@@H]1CCCC[C@H]1N1CCCC1 | 100 |
| CN(CCc1cccs1)[C@@H]1CCCC[C@H]1N(C)C(=O)Cc1cccc2sccc12 | 0.99 |
| C=CCN(C)[C@@H]1CCCC[C@H]1N(C)C(=O)Cc1cccc2sccc12 | 4 |
| CN(C(=O)Cc1ccc(Cl)c(Cl)c1)C1CCC2(CCCO2)CC1N1CCCC1 (stereo not given) | 380 |
| CN(C(=O)Cc1cccc2sccc12)[C@@H]1CCCC[C@H]1N1CCCCCC1 | 20 |
| CN(C(=O)Cc1c[nH]c2ccccc12)[C@@H]1CCCC[C@H]1N1CCCC1 | 39 |

Target: T1, Opioid receptors; mu & kappa (Homo sapiens)
Experiment: Ratio of Ki at mu-opioid receptor to Ki at kappa opioid receptor
Conditions: Cavia porcellus

| Compound | Ratio |
| --- | --- |
| CCN(CC)[C@@H]1CCCC[C@H]1N(C)C(=O)Cc1cccc2sccc12 | 0.19 |
| CN(C(=O)Cc1cccc2occc12)[C@@H]1CCCC[C@H]1N1CCCCCC1 | 120 |
| CN(C(=O)Cc1cccc2sccc12)[C@@H]1CCCC[C@H]1N1CCCCC1 | 9.6 |
| CC[C@@]12CCN(CC3CC3)C(C(=O)c3ccc(O)cc31)[C@@H]2C | 3 |
| CN(C(=O)Cc1cccs1)[C@@H]1CCCC[C@H]1N1CCCC1 | 25 |
